Species: Homo sapiens
Assay: Selectivity ratio of IC50 for human recombinant MAO-B to IC50 for human recombinant MAO-A

Ratio IC50: 80.2
SMILES: CN1C(=N)N(C)/C(=C/c2c[nH]c3cc(Br)ccc23)C1=O

Reference: ChEMBL document CHEMBL2057107, “Synthesis and evaluation of aplysinopsin analogs as inhibitors of human monoamine oxidase A and B” (Bioorg Med Chem Lett, 2012)
